Assays:
Format in all cases: cell-based
Conditions in all cases: n=3-8, read-out: pIC50 (Mean ± SEM) (converted)
hURAT1 F449A = target: T1, hURAT1 F449A (Homo sapiens, UniProt Q96S37, F449A); assay: 14C-urate uptake inhibition assay, hURAT1 F449A mutant in HEK293 cells
T1 construct: Flag; expressed in transfected cells; host or cells: HEK293
Description: (§1) The cells were seeded at a density of 30,000 cells per well in Isoplate-96 plates (Perkin Elmer).

Amino acid sequences for entries named in this document (tags omitted).
UniProt Q96S37, whole entry F449A: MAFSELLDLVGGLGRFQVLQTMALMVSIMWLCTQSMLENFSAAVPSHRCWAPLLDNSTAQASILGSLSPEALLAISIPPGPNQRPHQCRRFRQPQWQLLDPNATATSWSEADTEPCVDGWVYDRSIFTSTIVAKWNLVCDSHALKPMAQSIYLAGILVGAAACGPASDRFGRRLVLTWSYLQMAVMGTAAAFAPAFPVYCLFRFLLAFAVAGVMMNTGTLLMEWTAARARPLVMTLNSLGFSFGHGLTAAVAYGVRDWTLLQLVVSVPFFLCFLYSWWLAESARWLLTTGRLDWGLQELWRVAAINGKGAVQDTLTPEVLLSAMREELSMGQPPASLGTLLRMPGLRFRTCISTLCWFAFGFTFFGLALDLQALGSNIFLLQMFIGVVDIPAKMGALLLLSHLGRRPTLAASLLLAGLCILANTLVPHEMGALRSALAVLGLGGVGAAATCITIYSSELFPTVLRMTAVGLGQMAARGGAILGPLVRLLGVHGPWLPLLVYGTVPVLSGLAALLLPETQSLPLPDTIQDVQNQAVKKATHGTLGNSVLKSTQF
UniProt Q96S37, whole entry R477K: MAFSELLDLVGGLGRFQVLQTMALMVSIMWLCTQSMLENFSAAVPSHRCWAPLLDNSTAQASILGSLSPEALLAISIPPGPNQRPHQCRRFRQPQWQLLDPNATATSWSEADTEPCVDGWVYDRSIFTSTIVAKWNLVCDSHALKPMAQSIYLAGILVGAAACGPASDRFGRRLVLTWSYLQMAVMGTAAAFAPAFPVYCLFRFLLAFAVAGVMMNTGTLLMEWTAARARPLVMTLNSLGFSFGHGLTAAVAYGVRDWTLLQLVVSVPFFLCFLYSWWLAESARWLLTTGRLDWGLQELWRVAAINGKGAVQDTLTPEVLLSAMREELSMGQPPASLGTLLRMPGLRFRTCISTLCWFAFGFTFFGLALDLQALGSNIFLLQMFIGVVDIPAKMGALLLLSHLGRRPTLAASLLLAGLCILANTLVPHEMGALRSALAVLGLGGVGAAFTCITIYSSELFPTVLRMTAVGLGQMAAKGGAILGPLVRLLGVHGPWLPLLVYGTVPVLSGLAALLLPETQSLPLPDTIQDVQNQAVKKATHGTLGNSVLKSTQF
UniProt Q96S37, whole entry F360A: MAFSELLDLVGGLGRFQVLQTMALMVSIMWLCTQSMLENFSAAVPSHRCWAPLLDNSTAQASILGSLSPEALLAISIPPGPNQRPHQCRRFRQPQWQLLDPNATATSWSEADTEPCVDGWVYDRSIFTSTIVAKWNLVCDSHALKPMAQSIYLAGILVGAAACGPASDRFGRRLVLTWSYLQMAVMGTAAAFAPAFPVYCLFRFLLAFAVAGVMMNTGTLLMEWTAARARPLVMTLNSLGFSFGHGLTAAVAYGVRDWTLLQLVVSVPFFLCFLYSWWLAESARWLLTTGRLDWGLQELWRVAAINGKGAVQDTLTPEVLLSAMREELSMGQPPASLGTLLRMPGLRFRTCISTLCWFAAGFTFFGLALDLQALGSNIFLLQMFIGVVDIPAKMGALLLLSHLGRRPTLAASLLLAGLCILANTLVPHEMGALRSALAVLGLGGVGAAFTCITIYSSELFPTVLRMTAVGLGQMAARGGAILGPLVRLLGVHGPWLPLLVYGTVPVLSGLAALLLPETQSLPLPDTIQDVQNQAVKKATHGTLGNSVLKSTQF

hURAT1 R477K = target: T2, hURAT1 R477K (Homo sapiens, UniProt Q96S37, R477K); assay: 14C-urate uptake inhibition assay, hURAT1 R477K mutant in HEK293 cells
T2 construct: Flag; expressed in transfected cells; host or cells: HEK293
Description: as §1

hURAT1 F360A = target: T3, hURAT1 F360A (Homo sapiens, UniProt Q96S37, F360A); assay: 14C-urate uptake inhibition assay, hURAT1 F360A mutant in HEK293 cells
T3 construct: Flag; expressed in transfected cells; host or cells: HEK293
Description: as §1

O=C(O)CSc1nnc(Br)n1-c1ccc(C2CC2)c2ccccc12 [lesinurad]
IC50 (hURAT1 F449A): 263 µM
IC50 (hURAT1 R477K): 37.2 µM
IC50 (hURAT1 F360A): 16.2 µM

Source: article PMC11962085, “Molecular mechanisms of urate transport by the native human URAT1 and its inhibition by anti-gout drugs” (Cell Discovery, 2025)
